Values of other authors, collected in PMC5322387.

Tests used:
E2 L1 L1 (Homo sapiens) = E2 L1 L1 (Homo sapiens) (UniProt P10515)
E2 L2 L2 (Homo sapiens) [1] = biological target: E2 L2 L2 (Homo sapiens) (UniProt P10515)
[2] = biological target: E3BP L3 L3 (Homo sapiens) (UniProt O00330)
E2 L2 L2 (Homo sapiens) [3] = biological target: E2 L2 L2 (Homo sapiens) (UniProt P10515); test: gel filtration
E2 L2 L2 (Homo sapiens) [4] = biological target: E2 L2 L2 (Homo sapiens) (UniProt P10515); test: analytical ultracentrifugation

Kd (E2 L1 L1 (Homo sapiens)): 22 µM
Kd (E2 L2 L2 (Homo sapiens) [1]): 3 µM and 0.4 µM
Kd [2]: 35 µM
Kd (E2 L2 L2 (Homo sapiens) [3]): 10 µM
Kd (E2 L2 L2 (Homo sapiens) [4]): 175 µM and 130 µM
Substance: PDK2 (from UniProt Q15119)

Several values for one entry are separate records, joined by “and”; a condition that tells them apart may be missing. Identical values can stand only once. Like-named read-outs stand apart in the source and are kept apart here.
